{"source": "paper PMC6976901", "about": "(Toxicology Reports, 2020)", "origin": "cited, not measured here", "system": "liver (hepatotoxicity)", "settings": "Hazard Evaluation Support System Integrated Platform, cited from earlier work", "note": "Where two headings read alike, the source gives them in different places.", "data": [{"smiles": "O=S(=O)(c1ccc(O)cc1)c1ccc(O)cc1", "note": "[bisphenol S]", "values": [{"measurement": "hepatic NOEL", "setting": "Table 2", "result": 200, "unit": "mg/kg/day"}]}, {"smiles": "Nc1cccc(S(=O)(=O)O)c1", "note": "[3-aminobenzenesulfonic acid]", "values": [{"measurement": "hepatic NOEL", "setting": "Table 1", "result": 1000, "unit": "mg/kg/day"}]}]}
